## Ab-14 heavy chain CDR variants: yeast mating affinities

Data: MIT Lincoln Laboratory AlphaSeq set, Li et al. 2023, doi:10.1038/s41467-023-39022-2, as distributed in FLAb.

Binding partner: SARS-CoV-2 spike HR2 peptide, sequence PDVDLGDISGINAS.

Parent: Ab-14, a human scFv built as VH, a 15-residue (Gly4Ser)3 linker, VL. Only the CDRs of the heavy chain vary.
VH: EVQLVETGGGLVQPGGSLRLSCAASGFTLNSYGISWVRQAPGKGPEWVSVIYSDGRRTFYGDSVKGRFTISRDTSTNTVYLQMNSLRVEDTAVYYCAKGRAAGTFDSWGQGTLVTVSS
VL: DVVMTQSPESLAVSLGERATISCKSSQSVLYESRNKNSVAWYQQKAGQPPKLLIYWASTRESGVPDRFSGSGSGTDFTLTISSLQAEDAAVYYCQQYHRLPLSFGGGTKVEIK

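The variants were designed computationally from a first round of random CDR variants and then made and measured. Their group label is 14H_En_Gen (En: ensemble of fine-tuned language models; Gen: genetic algorithm). AlphaSeq pools MATa yeast showing the antibodies with MATalpha yeast showing the peptide. After mating in shaken culture at 30 °C for 16 h, diploids were selected and their barcode pairs sequenced. Each replicate has its own calibration line, from reference interactions of the BCL2 family. Mating was done six times.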

The parent's heavy chain CDRs are GFTLNSYGIS, VIYSDGRRTFYGDSVK, GRAAGTFDS; each variant's own CDRs replace them letter for letter. The read-out is the apparent dissociation constant on a log10 scale (nM): the lower, the stronger. Replicates are averaged; those with no signal do not enter the mean. A pair that was not seen in that replicate is written "n.d."; this usually means weak binding, but a binder can also be missed.

| CDR-H1 | CDR-H2 | CDR-H3 | log10 Kd, replicates | mean, log10 nM | control signals |
|---|---|---|---|---|---|
| GFDLNEYGIS | VIYADGVRTAYADDVK | GEVAGTFDT | -0.43 0.32 -0.14 0.00 -0.58 -0.67 | -0.25 | 0/18 |
| GFDLDEYGIS | VIYADGMRTYYSDSVK | GENAGTFDV | -2.16 -1.72 -1.97 -2.49 -2.16 -2.54 | -2.17 | 0/18 |
| GFDLNEYGIS | VIYADGQRTAYADSVK | GNTAGTFDI | 0.07 -0.17 -0.24 -0.47 -0.22 0.31 | -0.12 | 0/18 |
| GFDLNEYGIS | VIYADGMRTAYADSVK | GNVAGTFDV | 0.47 -0.02 -1.01 -0.15 -0.01 1.48 | 0.13 | 0/18 |
| GFDLNEYGIS | VIYADGRRTAYADDVK | GETAGTFDQ | -0.26 -0.22 -0.45 -0.52 -0.70 -0.59 | -0.46 | 0/18 |
| GFDLNEYGIS | VIYADGRRTAYSDSVK | GNNAGTFDL | n.d. 1.80 n.d. n.d. n.d. 1.13 | 1.47 | 0/18 |
| GFDLNEYGIS | VIYADGQRTAYADSVK | GNVAGTFDL | -0.59 -1.08 -0.25 -0.83 -1.27 -1.04 | -0.84 | 0/18 |
| GFDLNEYGIS | VIYADGVRTAYADSVK | GQVAGTFDT | -0.77 -0.39 -1.55 -1.80 0.25 n.d. | -0.85 | 0/18 |
| GFDLDEYGIS | VIYADGRRTAYSDSVK | GNVAGTFDM | -0.27 -0.41 -0.37 -0.38 -0.68 -0.23 | -0.39 | 0/18 |
| GFDLNEYGIS | VIYADGMRTQYADSVK | GNTAGTFDV | -0.09 -0.45 -0.72 -0.23 -0.15 -0.48 | -0.35 | 0/18 |
| GFDLNEYGIS | VIYADGMRTAYTDSVK | GQNAGTFDM | -0.58 -0.31 -0.30 -0.13 -0.78 -0.21 | -0.38 | 0/18 |
| GFDLNEYGIS | VIYADGQRTAYADSVK | GGNAGTFDM | 0.26 -0.20 0.14 -0.21 0.23 0.06 | 0.05 | 0/18 |
| GFDLDEYGIS | VIYADGMRTFYADSVK | GEVAGTFDV | -0.34 -0.63 0.19 -0.36 -0.72 -0.60 | -0.41 | 0/18 |
| GFDLNEYGIS | VIYADGMRTAYIDSVK | GENAGTFDT | -0.23 -0.20 -0.59 -0.25 -0.55 0.07 | -0.29 | 0/18 |
| GFDLNEYGIS | VIYADGMRTAYADDVK | GENGGTFDV | -0.02 0.18 -0.25 -0.24 -0.28 -0.32 | -0.16 | 0/18 |
| GFDLNEYGIS | VIYADGMRTAYANSVK | GNVAGTFDM | -0.14 -0.14 -0.48 -0.50 -0.47 -0.23 | -0.33 | 2/18 (1.72) |
| GFDLNEYGIS | VIYADGMRTAYANSVK | GEVAGTFDI | -0.18 -0.44 -0.44 0.10 -0.40 -0.35 | -0.29 | 0/18 |
| GFDLDEYGIS | VIYADGQRTAYSDSVK | GETAGTFDL | -0.06 -0.28 -0.33 -0.42 0.02 -0.26 | -0.22 | 0/18 |
| GFDLNEYGIS | VIYADGMRTAYADKVK | GETAGTFDV | 0.14 -0.26 -0.51 -0.44 -0.14 -0.33 | -0.25 | 0/18 |
| GFNLDEYGIS | VIYADGKRTAYSDSVK | GNVAGTFDV | -0.09 -0.29 -0.60 -0.40 0.73 -0.23 | -0.15 | 0/18 |
| GFDLNEYGIS | VIYADGMRTAYADNVK | GTNAGTFDV | -0.37 -0.51 -0.20 -0.67 -0.09 -0.39 | -0.37 | 0/18 |
| GFDLNEYGIS | VIYADGMRTAYADDVK | GANAGTFDQ | -0.24 -0.35 -0.33 -0.50 -0.50 -0.35 | -0.38 | 1/18 (2.09) |
| GFDLDEYGIS | VIYADGVRTYYADSVK | GNVAGTFDV | -1.28 -1.59 0.31 -1.25 -0.40 -0.16 | -0.73 | 0/18 |
| GFDLNEYGIS | VIYADGMRTAYVDSVK | GNNAGTFDV | 0.19 -0.97 n.d. -0.84 -1.03 0.01 | -0.53 | 0/18 |
| GFDLDEYGIS | VIYADGRRTAYADNVK | GENAGTFDV | -0.23 -0.02 -0.24 -0.36 -0.73 -0.24 | -0.30 | 0/18 |
| GFDLDEYGIS | VIYADGRRTAYADSVK | GETAGTFDQ | 0.76 0.72 0.53 0.30 0.94 1.04 | 0.71 | 1/18 (2.73) |
| GFDLNEYGIS | VIYADGKRTFYADSVK | GNVAGTFDM | -0.67 n.d. -0.01 0.25 0.49 0.39 | 0.09 | 0/18 |
| GFDLNEYGIS | VIYADGMRTSYADDVK | GNVAGTFDL | n.d. n.d. n.d. n.d. n.d. n.d. | n.d. | 0/18 |
| GFDLNEYGIS | VIYADGMRTAYADDVK | GVNAGTFDV | -0.29 -0.39 -0.31 -0.29 -0.50 -0.07 | -0.31 | 0/18 |
| GFDLNEYGIS | VIYADGVRTAYADSVK | GQTAGTFDV | 0.06 -0.21 -0.20 -0.46 -0.22 0.36 | -0.11 | 0/18 |
| GFNLDEYGIS | VIYADGMRTAYADSVK | GNEAGTFDV | -0.73 -0.48 -0.65 -0.95 -0.93 -0.73 | -0.74 | 0/18 |

The authors averaged sequences with at least three values out of six and counted those with two or fewer as poor binders. Of ten entries with the parent sequence, four were seen in most replicates (averages 0.34 to 2.37), three in one and three in none, so single entries are noisy. A sequence measured in both rounds can read differently, since the two assays cover different ranges. Nonspecific signal, from three strains lacking the peptide, appeared in 1% of pairings of all heavy chain designs, centred on 2.08 (5% of these signals below 0.84); values are not corrected for it. For each scFv, signals with the empty controls are counted beside the result, with their mean in brackets.